The values below come from ChEMBL document CHEMBL1212838, “Investigations on the 2-thiazolylhydrazyne scaffold: synthesis and molecular modeling of selective human monoamine oxidase inhibitors” (Bioorg Med Chem, 2010).

The species entered for the assay is Homo sapiens. The assay is described as follows: Selectivity index, ratio of IC50 for human recombinant MAOA to IC50 for human recombinant MAOB.

For `COc1cccc(-c2csc(N/N=C/c3cccc4ccccc34)n2)c1`, the Ratio IC50 was under 0.036.
The value for `CCCCCC/C(C)=N/Nc1nc(-c2cccc(OC)c2)cs1` was under 0.014.
